Curated experimental data: melting point values

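The OPERA project collected these measurements from public sources as training and test data for property models. A listed value is a point estimate from one report or more. Method, purity and exact conditions of the single measurements are not given. A value may pool stereoisomers or salt forms, and the file does not say which form was measured. Some upstream entries may be estimates or bounds without being marked so.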

The melting point is given in degrees Celsius.
The databases behind each value are named after "via".

Listed for CCCCCCCCCCCCCCC(CO)CCCCCCCCCCCC (centres undefined): melting point 27.5 °C (via eChemPortal).
Listed for ON=C1CCCCCCC1: melting point 36.5 °C (via OCHEM).
Listed for N#CCCC(=O)c1ccco1: melting point 82 °C (via OCHEM).
Listed for COc1cc(C#N)ccn1: melting point 95 °C (via OCHEM).
Listed for O=C(O)c1cn(-c2ccccc2)nc1-c1ccc(Cl)cc1: melting point 247 °C (via OCHEM).
Listed for Cc1ccccc1-n1cc[nH]c1=S: melting point 246 °C (via OCHEM).
Listed for Nc1ccc(S(=O)(=O)N2CCCCCC2)cc1: melting point 106 °C (via OCHEM).
Listed for CCOC(=O)c1sc(SC)nc1N: melting point 81 °C (via OCHEM).
Listed for COc1ccccc1OCC1CNC(=O)O1 (centres undefined): melting point 144 °C (via OCHEM).
Listed for NS(=O)(=O)c1ccc(OCCBr)cc1: melting point 112 °C (via OCHEM).
Listed for COc1cc(C=O)ccc1OCC(=O)O: melting point 185 °C (via OCHEM).
Listed for CC(C)CC1N=C(O)N=C1O (centres undefined): melting point 216 °C (via OCHEM).
Listed for COc1ccc(NCc2ccc(N(C)C)cc2)cc1: melting point 103 °C (via OCHEM).
Listed for COc1ccc(C=O)c(Cl)c1: melting point 61 °C (via OCHEM).
Listed for Cc1ccc(Oc2ccc(O)cc2)cc1: melting point 72 °C (via OCHEM).
Listed for CCn1nc(C(C)C)cc1C(=O)O: melting point 116 °C (via OCHEM).
Listed for CC(C)(C)N(NC(=O)c1ccccc1)C(=O)c1ccccc1[N+](=O)[O-]: melting point 182 °C (via OCHEM).
Listed for Cc1[nH]c(=O)[nH]c1C: melting point 240 °C (via OCHEM).
Listed for NNC(=O)c1n[nH]c2c1CCCC2: melting point 177 °C (via OCHEM).
Listed for FC(F)C(F)(F)OC(F)(F)F: melting point -141.2 °C (via ChemicalBook).
Listed for Brc1cc(Br)ncn1: melting point 50.5 °C (via OCHEM).
Listed for Cc1cn([C@H]2C[C@H](N=[N+]=[N-])[C@@H](CO)O2)c(=O)[nH]c1=O: melting point 114 °C (via OCHEM, PubChem).
Listed for O=S(=O)(c1ccc(Cl)nc1)N1CCOCC1: melting point 144 °C (via OCHEM).
Listed for CCOC(=O)c1c(C)n(CC)c2ccc(O)cc12: melting point 184 °C (via OCHEM).
Listed for Cn1cc(S(=O)(=O)Cl)c(=O)n(C)c1=O: melting point 208 °C (via OCHEM).
Listed for OCCCC(F)(F)C(F)(F)C(F)(F)C(F)(F)C(F)(F)C(F)(F)F: melting point -4.5 °C (via eChemPortal).
Listed for CC(C)C(Br)C(=O)c1ccccc1 (centres undefined): melting point 50 °C (via OCHEM).
Listed for O=Cc1cc(Br)c2c(c1)OCCO2: melting point 100 °C (via OCHEM).
Listed for Nc1cccc(-c2nnc3n2CCCCC3)c1: melting point 201 °C (via OCHEM).
Listed for Nc1nnc(SCC(=O)O)s1: melting point 197 °C (via OCHEM).
Listed for Nc1ccc(CC(=O)N2CCCC2)cc1: melting point 108 °C (via OCHEM).
Listed for O=C(O)c1cc(-c2ccc(Cl)cc2)nn1-c1ccccc1: melting point 215 °C (via OCHEM).
Listed for CN(C)c1ccc(C(O)(c2ccc(N(C)C)cc2)c2ccc(N(C)C)cc2)cc1: melting point 180 °C (via eChemPortal).
Listed for NC(=O)COc1ccc(C=O)cc1: melting point 135 °C (via OCHEM).
Listed for CC(CC(C)(C)C)C[Si](Cl)(Cl)Cl (centres undefined): melting point -129 °C (via eChemPortal).
Listed for CNC(=O)c1cccc(O)c1: melting point 109 °C (via OCHEM).

The first 4 entries again:

compound	melting point (°C)	via
CCCCCCCCCCCCCCC(CO)CCCCCCCCCCCC (centres undefined)	27.5	eChemPortal
ON=C1CCCCCCC1	36.5	OCHEM
N#CCCC(=O)c1ccco1	82	OCHEM
COc1cc(C#N)ccn1	95	OCHEM

Data: OPERA 2.9 data sets, kmansouri/OPERA on GitHub.